This experiment concerns the target recombinant human Tie-2 protein (Homo sapiens, UniProt Q02763). Put plainly: Z′-Lyte FRET enzymatic activity assay of Tie-2 kinase. Type of experiment: biochemical.

Protein sequences, listed by entry. Tags and fused reporters are not part of them. Residues count along the entry.
UniProt Q02763, 23-1124 limits assumed: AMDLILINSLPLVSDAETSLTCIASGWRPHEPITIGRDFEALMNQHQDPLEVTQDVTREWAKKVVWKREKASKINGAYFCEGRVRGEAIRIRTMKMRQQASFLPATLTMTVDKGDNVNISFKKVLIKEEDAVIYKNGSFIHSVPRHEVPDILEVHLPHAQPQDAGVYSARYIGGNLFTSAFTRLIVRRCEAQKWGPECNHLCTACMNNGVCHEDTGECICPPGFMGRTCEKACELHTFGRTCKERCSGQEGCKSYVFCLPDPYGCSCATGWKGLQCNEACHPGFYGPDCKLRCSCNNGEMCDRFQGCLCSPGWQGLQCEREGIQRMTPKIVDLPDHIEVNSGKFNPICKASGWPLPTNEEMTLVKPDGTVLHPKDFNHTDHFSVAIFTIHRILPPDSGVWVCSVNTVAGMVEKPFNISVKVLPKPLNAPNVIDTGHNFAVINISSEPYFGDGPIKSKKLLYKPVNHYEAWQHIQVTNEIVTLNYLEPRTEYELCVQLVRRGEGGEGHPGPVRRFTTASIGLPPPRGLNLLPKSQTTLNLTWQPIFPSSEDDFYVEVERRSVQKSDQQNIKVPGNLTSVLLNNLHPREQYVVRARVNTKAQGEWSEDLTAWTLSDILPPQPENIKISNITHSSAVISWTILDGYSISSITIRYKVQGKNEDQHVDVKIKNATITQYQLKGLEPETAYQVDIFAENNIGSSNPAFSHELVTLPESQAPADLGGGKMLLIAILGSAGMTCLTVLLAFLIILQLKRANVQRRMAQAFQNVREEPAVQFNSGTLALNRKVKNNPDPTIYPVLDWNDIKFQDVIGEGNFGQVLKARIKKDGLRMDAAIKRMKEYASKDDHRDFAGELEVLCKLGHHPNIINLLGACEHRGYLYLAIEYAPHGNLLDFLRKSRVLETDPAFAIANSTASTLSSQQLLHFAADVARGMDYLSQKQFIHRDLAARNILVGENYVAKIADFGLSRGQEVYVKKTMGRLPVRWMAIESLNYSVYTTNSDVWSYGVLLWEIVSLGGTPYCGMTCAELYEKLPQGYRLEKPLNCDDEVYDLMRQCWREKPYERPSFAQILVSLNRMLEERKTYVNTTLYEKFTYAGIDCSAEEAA

`Cc1ccc(Cl)cc1-c1ccc(C=NNc2nc3ccccc3s2)o1`: the “Inhibition (%) @10 μg/ml” value (10 μg/mL preliminary screening, Table S1) was found to be 43.36±1.3%. Also, under “VS candidates of Strategy 1, preliminary screening at 10 μg/mL”, the “Tie-2 inhibitory activity in words (active / inactive)” value is recorded as “active”. Further, the IC50 (read-out: IC50 (half-maximal inhibitory concentration), Tie-2 kinase, Z′-Lyte assay, 100 μM ATP, n ≥ 2 per concentration) is 34 µM.

(Values after PMC5120310, “In Silico Exploration for Novel Type-I Inhibitors of Tie-2/TEK: The Performance of Different Selection Strategy in Selecting Virtual Screening Candidates” (Scientific Reports, 2016).)
